Assay results as given in patent US20090012103A1, “SUBSTITUTED HETEROCYCLIC COMPOUNDS” (priority 2007, published 2009).

By UniProt entry, the sequences of proteins in these tests, tags left out.
UniProt Q14524, whole entry: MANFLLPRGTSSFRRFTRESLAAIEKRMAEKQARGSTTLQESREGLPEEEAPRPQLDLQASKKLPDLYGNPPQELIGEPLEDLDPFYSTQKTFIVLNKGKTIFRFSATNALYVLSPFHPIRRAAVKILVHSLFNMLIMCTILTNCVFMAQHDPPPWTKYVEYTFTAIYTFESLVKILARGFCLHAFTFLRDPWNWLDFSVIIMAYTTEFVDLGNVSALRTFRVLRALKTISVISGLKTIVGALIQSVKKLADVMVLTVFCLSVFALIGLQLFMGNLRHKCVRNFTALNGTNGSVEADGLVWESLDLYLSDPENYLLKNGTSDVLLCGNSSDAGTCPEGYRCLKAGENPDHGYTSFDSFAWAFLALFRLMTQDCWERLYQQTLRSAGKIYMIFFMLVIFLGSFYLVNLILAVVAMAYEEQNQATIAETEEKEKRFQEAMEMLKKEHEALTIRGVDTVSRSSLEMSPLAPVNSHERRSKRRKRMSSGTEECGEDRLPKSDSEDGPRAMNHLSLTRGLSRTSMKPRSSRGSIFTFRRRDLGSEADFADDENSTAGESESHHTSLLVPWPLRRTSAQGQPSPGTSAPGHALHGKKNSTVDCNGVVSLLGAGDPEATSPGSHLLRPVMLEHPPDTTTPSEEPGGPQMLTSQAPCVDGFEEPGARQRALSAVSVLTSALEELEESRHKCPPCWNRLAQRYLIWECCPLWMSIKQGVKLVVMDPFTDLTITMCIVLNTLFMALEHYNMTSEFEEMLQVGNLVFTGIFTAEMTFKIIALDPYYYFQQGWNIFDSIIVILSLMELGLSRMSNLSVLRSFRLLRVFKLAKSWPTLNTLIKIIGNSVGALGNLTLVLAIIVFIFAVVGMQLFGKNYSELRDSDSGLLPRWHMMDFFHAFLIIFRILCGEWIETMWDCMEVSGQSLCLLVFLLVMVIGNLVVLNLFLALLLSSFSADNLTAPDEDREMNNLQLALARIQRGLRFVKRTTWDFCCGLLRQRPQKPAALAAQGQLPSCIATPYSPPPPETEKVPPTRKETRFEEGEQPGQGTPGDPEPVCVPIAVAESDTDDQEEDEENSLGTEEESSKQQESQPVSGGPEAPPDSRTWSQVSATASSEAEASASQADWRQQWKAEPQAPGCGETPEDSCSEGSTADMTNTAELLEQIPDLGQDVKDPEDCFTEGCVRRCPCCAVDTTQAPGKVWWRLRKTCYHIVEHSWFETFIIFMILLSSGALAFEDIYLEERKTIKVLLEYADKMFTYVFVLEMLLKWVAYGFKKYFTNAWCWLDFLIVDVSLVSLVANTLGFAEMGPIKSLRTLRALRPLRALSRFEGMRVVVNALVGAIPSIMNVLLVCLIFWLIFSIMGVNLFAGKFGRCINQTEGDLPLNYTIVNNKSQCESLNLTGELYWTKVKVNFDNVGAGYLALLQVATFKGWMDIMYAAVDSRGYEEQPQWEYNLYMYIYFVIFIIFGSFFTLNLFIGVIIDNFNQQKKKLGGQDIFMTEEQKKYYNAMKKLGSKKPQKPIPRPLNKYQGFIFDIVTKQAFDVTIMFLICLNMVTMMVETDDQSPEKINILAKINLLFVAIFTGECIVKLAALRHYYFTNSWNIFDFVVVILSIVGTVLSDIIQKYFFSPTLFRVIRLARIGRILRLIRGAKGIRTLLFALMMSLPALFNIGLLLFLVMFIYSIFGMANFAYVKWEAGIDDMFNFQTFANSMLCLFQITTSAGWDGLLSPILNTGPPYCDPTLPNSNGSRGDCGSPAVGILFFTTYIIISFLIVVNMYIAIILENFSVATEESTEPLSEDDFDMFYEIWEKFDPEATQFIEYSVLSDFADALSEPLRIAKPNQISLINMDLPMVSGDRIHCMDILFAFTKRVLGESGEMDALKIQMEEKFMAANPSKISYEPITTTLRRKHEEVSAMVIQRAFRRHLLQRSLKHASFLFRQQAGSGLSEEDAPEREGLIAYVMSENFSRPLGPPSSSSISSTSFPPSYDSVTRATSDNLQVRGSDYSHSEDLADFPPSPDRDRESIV

Biological target: wild-type human cardiac sodium channel, hNav1.5 (Homo sapiens, UniProt Q14524)
Assay: Late INa screening assay (late sodium current, PatchXpress whole cell patch clamp)
Format: cell-based
Conditions: read-out: Late INa % blk
Description: The late sodium current (Late INa) and peak sodium current (Peak INa) assays are performed on an automated electrophysiology platform, PatchXpress 7000A (MDS Analytical Technologies, Sunnyvale, Calif.), which uses the whole cell patch clamp technique to measure currents through the cell membrane of up to 16 cells at a time. The assay uses an HEK293 (human embryonic kidney) cell line heterologously expressing the wild-type human cardiac sodium channel, hNav1.5, purchased from Millipore (Billerica, Mass.). No beta subunits were coexpressed with the Na channel alpha subunit. […] Experiments are carried out at 24-27° C.
For both the Late INa and Peak INa assays, series resistance compensation is set to 50% and whole-cell compensation is performed automatically. […] Currents through open sodium channels are automatically recorded and stored in the DataXpress2 database (MDS Analytical Technologies, Sunnyvale, Calif.). Analysis is performed using DataXpress2 analysis software and data are compiled in Excel.
Compound stocks are routinely made in glass vials to 10 mM in dimethyl sulfoxide (DMSO). […]
All compounds are tested to determine their activity in blocking the late sodium current. […] Baseline current in the absence of Na^+ ions is measured at the end of each experiment (after two additions of 0 Na solution-see above) and is used to calculate the percent block by compound.

`CN(C)CCC1=C(C(=O)OCc2ccccc2)C(c2cccc3ccccc23)n2nnnc2N1` (stereo not shown) [PT-338, benzyl 5-(2-(dimethylamino)ethyl)-7-(naphthalen-1-yl)-4,7-dihydrotetrazolo[1,5-a]pyrimidine-6-carboxylate] showed an inhibition at 10 µM of 56.3%.
